In ChEMBL document CHEMBL5223088, “EP2 Antagonists (2011-2021): A Decade's Journey from Discovery to Therapeutics” (J Med Chem, 2021):

Assay: in vivo
Conditions: C57BL/6, mouse, brain, ip, 5 mg/kg

COc1cc(/C=C/C(=O)NCCn2c(C(F)(F)F)cc3ccccc32)cc(OC)c1OC
Kp: 1.6
